Patent US20200399258A1

By UniProt entry, the sequences of proteins in these tests, tags left out.
UniProt Q92794, whole entry: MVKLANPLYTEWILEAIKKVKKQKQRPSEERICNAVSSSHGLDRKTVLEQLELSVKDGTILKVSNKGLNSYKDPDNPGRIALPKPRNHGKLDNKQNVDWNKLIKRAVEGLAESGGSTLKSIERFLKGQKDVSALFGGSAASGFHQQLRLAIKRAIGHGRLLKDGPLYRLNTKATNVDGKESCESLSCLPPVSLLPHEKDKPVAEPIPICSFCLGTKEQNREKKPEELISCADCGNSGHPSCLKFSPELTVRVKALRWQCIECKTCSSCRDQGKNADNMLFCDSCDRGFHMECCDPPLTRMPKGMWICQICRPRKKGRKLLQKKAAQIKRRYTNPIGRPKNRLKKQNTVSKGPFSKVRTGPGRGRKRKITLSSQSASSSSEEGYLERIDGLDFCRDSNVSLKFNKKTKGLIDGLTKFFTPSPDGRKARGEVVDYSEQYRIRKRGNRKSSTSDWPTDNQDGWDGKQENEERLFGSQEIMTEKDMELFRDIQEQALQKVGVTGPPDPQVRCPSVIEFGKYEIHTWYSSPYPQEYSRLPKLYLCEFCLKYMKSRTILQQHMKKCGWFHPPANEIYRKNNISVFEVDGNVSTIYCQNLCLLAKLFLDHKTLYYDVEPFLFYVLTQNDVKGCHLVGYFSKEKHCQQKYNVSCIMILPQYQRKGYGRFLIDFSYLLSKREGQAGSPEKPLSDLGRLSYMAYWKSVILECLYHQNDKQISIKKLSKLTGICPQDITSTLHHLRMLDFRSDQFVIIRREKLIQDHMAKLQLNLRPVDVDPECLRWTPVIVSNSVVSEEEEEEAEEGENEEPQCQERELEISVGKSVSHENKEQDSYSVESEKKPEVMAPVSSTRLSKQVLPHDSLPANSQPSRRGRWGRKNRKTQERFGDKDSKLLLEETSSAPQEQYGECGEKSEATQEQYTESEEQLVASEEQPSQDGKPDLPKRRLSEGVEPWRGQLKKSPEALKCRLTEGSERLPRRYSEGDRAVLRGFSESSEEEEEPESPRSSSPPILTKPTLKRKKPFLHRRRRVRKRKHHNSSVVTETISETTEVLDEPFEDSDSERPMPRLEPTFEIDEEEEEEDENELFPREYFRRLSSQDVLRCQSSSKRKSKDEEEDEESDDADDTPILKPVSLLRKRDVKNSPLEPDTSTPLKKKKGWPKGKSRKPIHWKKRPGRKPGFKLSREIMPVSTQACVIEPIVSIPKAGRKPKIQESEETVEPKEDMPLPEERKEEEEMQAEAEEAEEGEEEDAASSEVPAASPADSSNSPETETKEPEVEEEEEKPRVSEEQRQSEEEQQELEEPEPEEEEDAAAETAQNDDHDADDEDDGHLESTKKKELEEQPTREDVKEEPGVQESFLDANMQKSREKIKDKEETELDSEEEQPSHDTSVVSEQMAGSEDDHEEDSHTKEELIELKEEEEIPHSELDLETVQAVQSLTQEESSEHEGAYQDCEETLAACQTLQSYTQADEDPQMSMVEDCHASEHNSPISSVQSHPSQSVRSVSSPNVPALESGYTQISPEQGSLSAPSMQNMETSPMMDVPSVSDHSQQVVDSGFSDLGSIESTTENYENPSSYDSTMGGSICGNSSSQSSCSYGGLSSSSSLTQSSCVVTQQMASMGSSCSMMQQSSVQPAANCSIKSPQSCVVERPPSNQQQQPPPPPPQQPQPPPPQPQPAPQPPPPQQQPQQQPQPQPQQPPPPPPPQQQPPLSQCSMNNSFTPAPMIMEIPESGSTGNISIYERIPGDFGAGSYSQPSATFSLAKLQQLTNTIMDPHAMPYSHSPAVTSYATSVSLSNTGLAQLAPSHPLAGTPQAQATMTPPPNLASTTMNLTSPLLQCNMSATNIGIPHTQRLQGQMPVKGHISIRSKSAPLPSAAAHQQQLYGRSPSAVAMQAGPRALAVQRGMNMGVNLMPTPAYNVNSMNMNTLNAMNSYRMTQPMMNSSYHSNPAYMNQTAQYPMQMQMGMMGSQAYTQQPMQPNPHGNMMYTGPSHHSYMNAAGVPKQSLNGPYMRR
UniProt O95251, whole entry: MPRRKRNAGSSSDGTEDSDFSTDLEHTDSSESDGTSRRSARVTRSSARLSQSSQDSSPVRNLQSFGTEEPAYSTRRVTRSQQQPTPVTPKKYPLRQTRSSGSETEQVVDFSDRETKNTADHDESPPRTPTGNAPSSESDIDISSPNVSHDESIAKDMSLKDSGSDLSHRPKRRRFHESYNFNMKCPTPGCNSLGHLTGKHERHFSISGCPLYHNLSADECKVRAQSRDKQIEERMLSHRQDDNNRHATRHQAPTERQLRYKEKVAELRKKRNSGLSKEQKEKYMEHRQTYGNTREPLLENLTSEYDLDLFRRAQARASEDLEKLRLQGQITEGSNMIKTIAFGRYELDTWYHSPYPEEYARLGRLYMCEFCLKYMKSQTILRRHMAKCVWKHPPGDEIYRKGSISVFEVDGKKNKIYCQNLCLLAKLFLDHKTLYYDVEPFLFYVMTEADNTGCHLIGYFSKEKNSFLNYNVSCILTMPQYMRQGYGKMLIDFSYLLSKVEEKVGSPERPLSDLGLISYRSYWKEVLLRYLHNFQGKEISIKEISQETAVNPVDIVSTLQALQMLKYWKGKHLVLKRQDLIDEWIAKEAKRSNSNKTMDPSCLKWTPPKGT
UniProt Q8WYB5, whole entry: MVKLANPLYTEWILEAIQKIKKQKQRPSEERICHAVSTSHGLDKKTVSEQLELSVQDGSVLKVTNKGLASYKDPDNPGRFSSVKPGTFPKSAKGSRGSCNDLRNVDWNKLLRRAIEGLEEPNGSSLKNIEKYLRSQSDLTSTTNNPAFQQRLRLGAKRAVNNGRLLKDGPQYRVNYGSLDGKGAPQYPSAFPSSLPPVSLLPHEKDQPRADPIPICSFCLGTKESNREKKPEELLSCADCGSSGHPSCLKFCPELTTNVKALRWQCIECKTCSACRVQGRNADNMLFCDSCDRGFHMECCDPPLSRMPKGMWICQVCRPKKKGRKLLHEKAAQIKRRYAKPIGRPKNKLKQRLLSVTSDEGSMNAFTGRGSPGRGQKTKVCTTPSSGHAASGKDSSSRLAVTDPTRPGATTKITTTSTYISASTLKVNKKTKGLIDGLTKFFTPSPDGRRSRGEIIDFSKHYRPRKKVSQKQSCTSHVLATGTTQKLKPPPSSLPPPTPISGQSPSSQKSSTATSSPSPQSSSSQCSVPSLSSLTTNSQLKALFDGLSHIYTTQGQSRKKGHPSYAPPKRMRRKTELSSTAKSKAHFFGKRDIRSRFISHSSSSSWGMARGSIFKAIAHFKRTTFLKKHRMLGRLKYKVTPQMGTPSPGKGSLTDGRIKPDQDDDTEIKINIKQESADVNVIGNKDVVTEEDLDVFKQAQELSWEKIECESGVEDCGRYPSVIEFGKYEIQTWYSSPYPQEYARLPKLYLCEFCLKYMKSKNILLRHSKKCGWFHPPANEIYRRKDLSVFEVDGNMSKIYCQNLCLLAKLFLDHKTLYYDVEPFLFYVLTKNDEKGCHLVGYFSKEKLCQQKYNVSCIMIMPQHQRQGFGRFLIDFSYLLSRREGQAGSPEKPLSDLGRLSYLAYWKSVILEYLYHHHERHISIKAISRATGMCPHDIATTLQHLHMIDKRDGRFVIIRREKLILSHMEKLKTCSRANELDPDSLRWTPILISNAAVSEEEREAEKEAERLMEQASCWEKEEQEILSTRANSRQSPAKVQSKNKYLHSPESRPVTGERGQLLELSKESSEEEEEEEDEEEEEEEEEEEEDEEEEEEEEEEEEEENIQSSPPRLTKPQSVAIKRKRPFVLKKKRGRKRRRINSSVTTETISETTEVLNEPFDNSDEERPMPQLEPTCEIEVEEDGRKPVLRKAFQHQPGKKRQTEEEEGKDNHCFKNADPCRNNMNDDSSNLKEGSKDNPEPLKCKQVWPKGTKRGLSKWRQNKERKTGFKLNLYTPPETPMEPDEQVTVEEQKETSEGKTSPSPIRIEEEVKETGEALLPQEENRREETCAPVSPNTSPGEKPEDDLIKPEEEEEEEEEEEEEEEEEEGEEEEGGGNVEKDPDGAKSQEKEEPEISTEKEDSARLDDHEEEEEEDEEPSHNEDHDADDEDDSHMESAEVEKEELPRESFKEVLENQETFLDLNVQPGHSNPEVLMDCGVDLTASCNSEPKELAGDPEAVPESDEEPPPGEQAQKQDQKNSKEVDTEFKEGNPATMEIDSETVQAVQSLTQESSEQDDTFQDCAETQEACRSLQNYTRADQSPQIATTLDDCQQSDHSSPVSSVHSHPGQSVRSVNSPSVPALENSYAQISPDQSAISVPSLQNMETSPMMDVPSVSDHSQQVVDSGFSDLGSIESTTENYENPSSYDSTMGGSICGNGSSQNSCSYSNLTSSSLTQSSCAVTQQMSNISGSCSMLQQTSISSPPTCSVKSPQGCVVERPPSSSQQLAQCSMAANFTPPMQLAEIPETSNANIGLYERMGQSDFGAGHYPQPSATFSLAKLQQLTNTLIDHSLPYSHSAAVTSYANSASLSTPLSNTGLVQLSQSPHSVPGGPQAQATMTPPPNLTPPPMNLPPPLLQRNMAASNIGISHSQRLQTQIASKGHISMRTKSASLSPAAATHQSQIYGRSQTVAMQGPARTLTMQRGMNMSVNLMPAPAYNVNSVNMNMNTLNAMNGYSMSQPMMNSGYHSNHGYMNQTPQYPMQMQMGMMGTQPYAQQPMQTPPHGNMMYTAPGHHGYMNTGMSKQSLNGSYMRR
UniProt Q92993, whole entry: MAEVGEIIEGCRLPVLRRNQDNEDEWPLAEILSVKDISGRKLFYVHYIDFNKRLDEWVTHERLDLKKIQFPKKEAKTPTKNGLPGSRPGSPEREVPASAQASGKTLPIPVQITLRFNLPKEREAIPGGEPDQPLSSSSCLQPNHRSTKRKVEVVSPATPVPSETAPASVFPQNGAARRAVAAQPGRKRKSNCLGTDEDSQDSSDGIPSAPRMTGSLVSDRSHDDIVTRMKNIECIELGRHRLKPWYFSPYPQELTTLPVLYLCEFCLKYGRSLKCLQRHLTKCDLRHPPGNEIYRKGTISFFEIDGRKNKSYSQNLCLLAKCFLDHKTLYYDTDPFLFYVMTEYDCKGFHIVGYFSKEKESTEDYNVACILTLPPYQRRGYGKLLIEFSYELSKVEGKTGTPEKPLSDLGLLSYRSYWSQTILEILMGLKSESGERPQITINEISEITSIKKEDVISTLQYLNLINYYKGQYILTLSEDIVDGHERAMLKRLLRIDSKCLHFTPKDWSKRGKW
UniProt Q9H7Z6, whole entry: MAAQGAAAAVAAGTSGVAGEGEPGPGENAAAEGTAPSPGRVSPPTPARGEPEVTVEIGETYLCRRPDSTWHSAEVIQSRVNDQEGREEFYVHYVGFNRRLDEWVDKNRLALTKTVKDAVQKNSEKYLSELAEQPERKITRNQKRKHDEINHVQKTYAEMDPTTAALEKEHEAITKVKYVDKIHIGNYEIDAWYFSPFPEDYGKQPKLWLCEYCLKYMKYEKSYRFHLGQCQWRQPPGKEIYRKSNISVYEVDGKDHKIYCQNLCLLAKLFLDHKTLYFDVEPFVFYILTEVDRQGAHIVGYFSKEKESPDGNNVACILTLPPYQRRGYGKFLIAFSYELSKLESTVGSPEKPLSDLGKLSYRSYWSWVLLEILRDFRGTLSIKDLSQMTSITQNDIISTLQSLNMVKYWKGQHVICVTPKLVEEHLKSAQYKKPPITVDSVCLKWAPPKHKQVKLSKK

How the values were obtained:
KAT6a = KAT6a (Homo sapiens, UniProt Q92794); assay: KAT assay (SAMDI mass spectrometry), KAT6a Ki; conditions: read-out: KAT6a Ki at 1 μM AcCoA, KAT6A 15 nM, 2 uM H3 1-21 peptide, 45-minute reaction
Description: (§1) A. Compound Preparation • 1. Prepare 10 mM stock solutions in 100% DMSO from solid material • 2. Serial dilute 10 mM, 1 mM or 0.1 mM compound stocks 3-fold in 100% DMSO for 11-point dose response
(§2) B. Reagent Preparation • 1. Prepare 1× assay buffer containing 10 mM Tris HCL pH 8.0, 2.5 mM NaCl, 0.5 mM EDTA, 0.005% BSG and 0.02% Tween-20 • 2. Dilute Histone peptide (CPC Scientific) and AcCoA (Sigma) together in assay buffer to 2×. • 3. Dilute KAT enzyme in assay buffer to 2×.
(§3) C. Enzyme Reaction • 1. Final reaction conditions for each KAT assay in a 20 ul assay reaction volume: • i. KAT5 25 nM, 1 uM AcCoA, 2 uM H4 1-21 peptide, 30-minute reaction • ii. KAT6A 15 nM, 1 uM AcCoA, 2 uM H3 1-21 peptide, 45-minute reaction • iii. […] Each reaction was analyzed using self-assembled monolayer desorption/ionization time-of-flight mass spectrometry (Mrksich, Milan (2008) Mass Spectrometry of Self-Assembled Monolayers: A New Tool for Molecular Surface Science ACS Nano 2008 2 (1), 7-18; SAMDI Tech, Inc. (Chicago, Ill.)). • 7. Area under the curve (AUC) for both substrate and product peaks was determined for KAT5 at M.W. 2561 [Substrate+H]+ and 2603 [Product+H]^+ with a +/−1 Da tolerance, respectively • 8. Area under the curve (AUC) for both substrate and product peaks was determined for KAT6A, KAT6B, KAT7 and KAT8 at M.W. 2723 [Substrate+H]^+ and 2765 [Product+H]^+ with a +/−1 Da tolerance, respectively. • 9. […]

KAT7 = KAT7 (Homo sapiens, UniProt O95251); assay: KAT assay (SAMDI mass spectrometry), KAT7 Ki; conditions: read-out: KAT7 Ki at 1 μM AcCoA, KAT7 12.5 nM, 2 uM H3 1-21 peptide, 45-minute reaction
Description: as §1, §2, §3

KAT6b = KAT6b (Homo sapiens, UniProt Q8WYB5); assay: KAT assay (SAMDI mass spectrometry), KAT6b Ki; conditions: read-out: KAT6b Ki at 1 μM AcCoA, KAT6B 25 nM, 2 uM H3 1-21 peptide, 60-minute reaction
Description: as §1, §2, §3

KAT5 = KAT5 (Homo sapiens, UniProt Q92993); assay: KAT assay (SAMDI mass spectrometry), KAT5 Ki; conditions: read-out: KAT5 Ki at 1 μM AcCoA, KAT5 25 nM, 2 uM H4 1-21 peptide, 30-minute reaction
Description: as §1, §2, §3

KAT8 = KAT8 (Homo sapiens, UniProt Q9H7Z6); assay: KAT assay (SAMDI mass spectrometry), KAT8 Ki; conditions: read-out: KAT8 Ki at 1 μM AcCoA, KAT8 15 nM, 2 uM H3 1-21 peptide, 45-minute reaction
Description: as §1, §2, §3

| Compound | Ki (KAT6a) [nM] | Ki (KAT7) [nM] | Ki (KAT6b) [nM] | Ki (KAT5) [nM] | Ki (KAT8) [nM] |
| --- | --- | --- | --- | --- | --- |
| COc1cccc(OC)c1S(=O)(=O)Nc1noc2cc(Cn3nccc3CO)cc(OC)c12 | 682 | 10500 |  |  |  |
| COc1cccc(OC)c1S(=O)(=O)Nc1noc2cc(Cn3ccc(CO)n3)cc(OC)c12 | 6.5 | 1850 | 12.4 | 12500 | 3260 |
